Earlier results on one substance are cited in publication PMC5724361 (ACS chemical biology, 2017).

Protein sequences, listed by entry. Tags and fused reporters are not part of them. Residues count along the entry.
UniProt P05067, 672-711 limits assumed: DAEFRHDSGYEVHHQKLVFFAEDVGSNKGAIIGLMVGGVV

The target of this series is Aβ1–40 (Homo sapiens, UniProt P05067). The note with it: cited from earlier work.

For Leucine enkephalin acetate hydrate, the “KD of Aβ:leucine enkephalin complexes” value was “in the µM range”.
